Values of other authors in patent US20190282692A1, “SELECTIVE LOCAL INHIBITION OF TNFR1-MEDIATED FUNCTIONS AT THE SITE OF ANTIGEN/ALLERGEN PRESENTATION” (priority 2012, published 2019).

Conditions: 600 mg to 1000 mg NAC three times daily orally, 4 weeks; cited from earlier work

## CC(=O)N[C@@H](CS)C(=O)O [NAC, N-acetyl-L-cysteine]
  safety of high doses: safe
